A short description of this data set: Bioavailability of SC and IT administered FSP in rats. It counts as in vivo, Male Sprague-Dawley rats. The settings on record: rat.

Take “human urinary-derived FSP: FERTINORM HP 75IU (Urofollitropin) im/sc, Serono Laboratories, reconstituted solution”: the “f (bioavailability in % = AUCIT/AUCSC)” value (IT vs SC, 9.0 Units/200 μL/rat) was 21.4%. For the setting “IT, 9.0 Units/200 μL/rat”, this substance returned an AUC of 53.63 mIU/ml.hr, a CMax of 4.14 mIU/ml and a TMax of 6 h. Where the note is “SC, 9.0 Units/200 μL/rat”, this substance registered an AUC of 251.3 mIU/ml.hr, a CMax of 10.25 mIU/ml and a TMax of 9 h.

For the setting “SC, 0.9 Units/200 μL/rat”, “human pituitary-derived FSP: Human FSH from pituitary, Sigma, lot #34H0069 product # F 4021 [reference compound]” returned an AUC of 94.05 mIU/ml.hr, a CMax of 6.6 mIU/ml and a TMax of 8 h. Under “SC, 9.0 Units/200 μL/rat”, this substance registered an AUC of 420.37 mIU/ml.hr, a CMax of 13.1 mIU/ml and a TMax of 4 h.

(Values after patent publication US7112341B1, “Pulmonary administration of dry powder formulations for treating infertility” (Nektar Therapeutics, priority 1999, dated 2006).)
